From BindingDB's records for PubMed 8632342 (Eli Lilly, 1996)
pKi: −log10 of the molar value.

By UniProt entry, the sequences of proteins in these tests, tags left out.
UniProt P30994, whole entry: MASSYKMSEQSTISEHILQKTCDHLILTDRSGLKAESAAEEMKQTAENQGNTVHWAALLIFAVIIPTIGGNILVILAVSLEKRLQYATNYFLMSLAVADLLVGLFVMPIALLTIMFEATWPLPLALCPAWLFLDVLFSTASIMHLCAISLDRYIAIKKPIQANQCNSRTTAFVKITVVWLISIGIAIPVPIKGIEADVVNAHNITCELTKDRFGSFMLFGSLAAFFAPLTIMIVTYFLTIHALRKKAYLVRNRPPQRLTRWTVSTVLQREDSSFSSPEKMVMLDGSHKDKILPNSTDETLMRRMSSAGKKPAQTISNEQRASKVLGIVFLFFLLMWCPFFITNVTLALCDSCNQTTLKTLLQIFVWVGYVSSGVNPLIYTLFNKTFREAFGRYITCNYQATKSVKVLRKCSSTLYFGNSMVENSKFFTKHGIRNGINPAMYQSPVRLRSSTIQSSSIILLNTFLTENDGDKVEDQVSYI

Biological target: 5-hydroxytryptamine receptor 2B (Rattus norvegicus, UniProt P30994)

pKi: 8.29
SMILES: Cc1nc2sccn2c(=O)c1CCN1CCC(=C(c2ccc(F)cc2)c2ccc(F)cc2)CC1
